{"source": "patent US8048872B2", "about": "“Treatment of hyperproliferative diseases with vinca alkaloid N-oxide and analogs” (Stat of Oregon Acting by and Through The Oregon State Board …, priority 2006, dated 2011)", "origin": "cited, not measured here", "details": "cited from earlier work", "key": {"[1]": {"details": "non-Hodgkin's lymphoma, Cyclophosphamide 1000 mg/m^2 IV day 1, Fludarabine 20 mg/m^2/d days 1-5, every 28 days"}}}
{"substance": "Cyclophosphamide + Fludarabine", "values": [{"measurement": "Infectious toxicity", "setting": "human, in vivo, iv", "value": "Infectious toxicity 11%"}, {"measurement": "Neutropenia (first cycle, without growth factor) Grade IV", "setting": "human, in vivo, iv", "value": "Grade IV 28%"}, {"measurement": "Neutropenia (first cycle, without growth factor) Grade III", "setting": "non-Hodgkin's lymphoma, Cyclophosphamide 1000 mg/m^2 IV day 1, Fludarabine 20 mg/m^2/d days 1-5", "value": "Grade III 26%"}, {"measurement": "Pulmonary toxicity", "setting": "non-Hodgkin's lymphoma, Cyclophosphamide 1000 mg/m^2 IV day 1, Fludarabine 20 mg/m^2/d days 1-5, every 28 days, Grade III-IV", "value": "Pulmonary toxicity 18%"}, {"measurement": "Neutropenia (all cycles) Grade III", "setting": "[1]", "value": "Grade III 25% of cycles"}, {"measurement": "Neutropenia (all cycles) Grade IV", "setting": "[1]", "value": "Grade IV 18% of cycles"}]}
{"substance": "cyclophosphamide+fludarabine", "values": [{"measurement": "discontinuation of treatment because of pulmonary toxicity", "setting": "human, in vivo", "value": 11, "unit": "%"}, {"measurement": "patients developing grade III or IV pulmonary toxicity", "setting": "human, in vivo", "value": 18, "unit": "%"}]}
{"substance": "Paclitaxel + Carboplatin", "values": [{"measurement": "Anemia Grade III-IV", "setting": "human, in vivo, iv", "value": 34, "unit": "%"}, {"measurement": "Anorexia", "setting": "human, in vivo, iv", "value": "Anorexia 23%"}, {"measurement": "Fatigue", "setting": "human, in vivo, iv", "value": "Fatigue 21%"}, {"measurement": "Febrile Neutropenia", "setting": "human, in vivo, iv", "value": "Febrile Neutropenia 13%"}, {"measurement": "Hospitalization (for IV antibiotics)", "setting": "human, in vivo, iv", "value": "IV antibiotics) 13%"}, {"measurement": "Myalgia/Arthralgia", "setting": "human, in vivo, iv", "value": "Myalgia/Arthralgia 6%"}, {"measurement": "Neuropathy", "setting": "human, in vivo, iv", "value": "Neuropathy 20%"}, {"measurement": "Neurotoxicity", "setting": "human, in vivo, iv", "value": "Neurotoxicity 1%"}, {"measurement": "Neutropenic Fever", "setting": "human, in vivo, iv", "value": "Neutropenic Fever 12%"}, {"measurement": "Paresthesias", "setting": "human, in vivo, iv", "value": "Paresthesia 2%"}]}
